# Where “and” joins values, the source holds several entries; their conditions need not be identical. Equal entries are not always repeated. The list shows a part of the results, in another mix than the full data. Results filed as inconclusive are left out. Calls of active or inactive are those of the source. The call rests on the fitted dose curve; in most records, active means well fitted activation curve with a large enough effect; inconclusive means small, poorly fitted or top-dose-only effect; inactive means no such curve, though single readings can be large or run the other way.
# Test: qHTS Assay for Enhancers of SMN2 Splice Variant Expression; further: % of control where 0% means no effect; nearly all actives have a fitted effect of over 55% in size
# Settings: HEK293 SMN2-luciferase splicing reporter, luminescence, 30-36 h
# [1] = at 46.1 µM (top of the series) unless noted
compound,measurement,setting,value
CCN(/C(=N/P(=O)(N1CCOCC1)N1CCOCC1)N1CCOCC1)c1ccc(OC)cc1,"activity change, positive = activation",[1],inactive: -2.59%
CC1CCN(C(=O)Oc2c(Cl)cc(Cl)c3cccnc23)CC1,"activity change, positive = activation",[1],inactive: -1.02%
CC(=O)C1=CCCC2CCC1N2 (configuration not stated),"activity change, positive = activation",[1],inactive: -1.75%
O=C(CO)Nc1ccc([As](=O)(O)O)cc1,"activity change, positive = activation",[1],inactive: -13% [at 9.22 µM]
CN(C)C(=O)OCCc1n(C)cc[n+]1C,"activity change, positive = activation",[1],inactive: 9.46%
CC(C)=N/N=C(\N)N[N+](=O)[O-],"activity change, positive = activation",[1],inactive: -7.19%
O=[N+]([O-])c1ncn(CCn2ncnc2[N+](=O)[O-])n1,"activity change, positive = activation",[1],inactive: 5.79%
CCOP(=O)(Nc1ccccc1)OCC,"activity change, positive = activation",[1],inactive: 7.98%
Cc1cc(SC(NC(=O)c2ccc(F)cc2)C(Cl)(Cl)Cl)ncn1 (configuration not stated),"activity change, positive = activation",[1],inactive: 18.7%
[N-]=[N+]=NCC(O)CN=[N+]=[N-] (configuration not stated),"activity change, positive = activation",[1],inactive: -8.66% [at 9.22 µM]
C(Cc1nn[nH]n1)c1nn[nH]n1,"activity change, positive = activation",[1],inactive: -22.6% [at 9.22 µM]
CCN(N=Nc1nonc1N)c1nonc1N,"activity change, positive = activation",[1],inactive: 6.9%
Cc1ccc(N/C(=N/P(=O)(N2CCOCC2)N2CCOCC2)N2CCOCC2)cc1,"activity change, positive = activation",[1],inactive: 15.9%
NC(=O)c1cc([N+](=O)[O-])cc([N+](=O)[O-])c1N,"activity change, positive = activation",[1],inactive: 2.69%
CN1CCCC(OC(=O)C(c2ccccc2)c2ccccc2)C1 (configuration not stated),"activity change, positive = activation",[1],inactive: -3.14%
O=[N+]([O-])c1ccc(C[As](=O)(O)O)cc1,"activity change, positive = activation",[1],inactive: -9% [at 9.22 µM]
Cc1c2non([O-])c-2c(C)[n+](=O)[n+]1[O-],"activity change, positive = activation",[1],inactive: -11.7%
Oc1ccccc1CNc1ccccn1,"activity change, positive = activation",[1],inactive: 10.6%
CC(C)CC(=O)NC(Sc1ccc(Cl)cc1)C(Cl)(Cl)Cl (configuration not stated),"activity change, positive = activation",[1],inactive: -4.17%
NCC[C@@H](N)CSP(=O)(O)O,"activity change, positive = activation",[1],inactive: -13.1% [at 9.22 µM]
Cc1c2c(nc3ccccc13)SC(C(Cl)Cl)C2 (configuration not stated),"activity change, positive = activation",[1],inactive: 6.24%
Cc1cc(=O)[nH]c(N[N+](=O)[O-])n1,"activity change, positive = activation",[1],inactive: 6.51%
O=C(OC1CN2CCC1CC2)C12CC3CC(CC(C3)C1)C2 (configuration not stated),"activity change, positive = activation",[1],inactive: -3.13%
NC(=O)Nc1cc([As](=O)(O)O)cc(I)c1O,"activity change, positive = activation",[1],inactive: -3.31% [at 9.22 µM]
COc1ccc2nc(NP(=O)(c3ccccc3)c3ccccc3)sc2c1,"activity change, positive = activation",[1],inactive: 11.7%
O=[As]c1ccc(S(=O)(=O)NCCO)cc1 (configuration not stated),"activity change, positive = activation",[1],inactive: -7.43% [at 9.22 µM]
[N-]=[N+]=NCC(N)=O,"activity change, positive = activation",[1],inactive: -9.21% [at 9.22 µM]
O=[N+]([O-])c1cc([N+](=O)[O-])c(-c2ccn[nH]2)s1,"activity change, positive = activation",[1],inactive: 9.34%
CCN(CC)C(=S)SC(NC=O)C(Cl)(Cl)Cl (configuration not stated),"activity change, positive = activation",[1],inactive: -14.1%
CC(C)NC(=O)NP(=O)(Oc1ccccc1)Oc1ccccc1,"activity change, positive = activation",[1],inactive: 11.7%
Cc1cc(SC(NC(=O)c2ccccc2)C(Cl)(Cl)Cl)nc(C(C)C)n1 (configuration not stated),"activity change, positive = activation",[1],inactive: 6.33%
CN(N=O)C(=N)N[N+](=O)[O-],"activity change, positive = activation",[1],inactive: 8.53%
Cc1cc(SC(NC=O)C(Cl)(Cl)Cl)ncn1 (configuration not stated),"activity change, positive = activation",[1],inactive: 2.27%
O=P(Nc1ccccn1)(c1cccc2ccccc12)c1cccc2ccccc12,"activity change, positive = activation",[1],inactive: -7.39%
COP1(=S)c2c(C)nn(CCC#N)c2N=C(c2ccc(F)cc2)N1C (configuration not stated),"activity change, positive = activation",[1],inactive: 29.4%
O=C(O)[C@@H](O)c1ccc([As](=O)(O)O)cc1,"activity change, positive = activation",[1],inactive: -0.514% [at 9.22 µM]
O=C(COc1ccccc1)OC1CN2CCC1CC2 (configuration not stated),"activity change, positive = activation",[1],inactive: 3.12%
CCC(C)N(CC(C)C)C(=S)SC(NC(C)=O)C(Cl)(Cl)Cl (configuration not stated),"activity change, positive = activation",[1],inactive: -30.4%
CN(CCCl)Cc1cc(Cl)c(NC2=NCCN2)c(Cl)c1,"activity change, positive = activation",[1],inactive: -2.44% and inactive: 9.53%
CN(C(=O)Cc1ccc(Cl)c(Cl)c1)[C@@H]1CCCC[C@H]1N1CCCC1,"activity change, positive = activation",[1],inactive: -9.17% and inactive: -52%
CC(C)/C=N\N=C(\N)N[N+](=O)[O-],"activity change, positive = activation",[1],inactive: -7.74%
CC1CCC(C(C)C)C(OP(=O)(Nc2ccccn2)c2ccccc2)C1 (configuration not stated),"activity change, positive = activation",[1],inactive: -38.8%
O=P1(Nc2ncccn2)COc2ccccc2OC1,"activity change, positive = activation",[1],inactive: 15.6%
Cc1ccc(OCC(=O)OC2CN3CCC2CC3)cc1 (configuration not stated),"activity change, positive = activation",[1],inactive: -3.32%
O=P(Nc1nccs1)(c1ccccc1)c1nc2ccccc2s1 (configuration not stated),"activity change, positive = activation",[1],inactive: 9.21%
O=P(Nc1nccs1)(Oc1ccccc1)Oc1ccccc1,"activity change, positive = activation",[1],inactive: -22.8%
CCOP1(=S)c2c(C)nn(CCC#N)c2N=C(c2ccccc2F)N1C (configuration not stated),"activity change, positive = activation",[1],inactive: 4.68%
O=[As](O)(O)c1ccc([As](=O)(O)O)cc1,"activity change, positive = activation",[1],inactive: 4.4% [at 9.22 µM]
O=[N+]([O-])CC(O)c1ccc([N+](=O)[O-])cc1 (configuration not stated),"activity change, positive = activation",[1],inactive: 0.777%
NC(=O)Nc1ccc([As](=O)(O)O)cc1,"activity change, positive = activation",at 20.6 µM (top of the series),inactive: -2.25%
same,"activity change, positive = activation",at 46.1 µM (top of the series),inactive: 9.24%
CN(C(=O)Cc1ccccc1)[C@@H]1CC[C@]2(CCCO2)C[C@H]1N1CCCC1,"activity change, positive = activation",[1],inactive: 2.43%
CCOP1(=S)c2c(C)nn(CCC#N)c2N=C(c2ccc(F)cc2)N1C (configuration not stated),"activity change, positive = activation",[1],inactive: 3.12%
O=[N+]([O-])c1ccc2c(c1)nnn2O,"activity change, positive = activation",[1],inactive: 4.58%
CN(C(=O)Cc1ccc(Cl)c(Cl)c1)[C@@H]1CC[C@]2(CCCO2)C[C@H]1N1CCCC1,"activity change, positive = activation",[1],inactive: -4.51% and inactive: -27.5%
COc1cc(C(=O)NCC2(N3CCOCC3)CCCCC2)cc(Cl)c1OC(C)C,"activity change, positive = activation",[1],inactive: 0.103%
Cc1cccc(OCC(=O)OC2CN3CCC2CC3)c1 (configuration not stated),"activity change, positive = activation",[1],inactive: -5.14%
Cc1ccc(NCCc2c([N+](=O)[O-])cc([N+](=O)[O-])cc2[N+](=O)[O-])cc1,"activity change, positive = activation",[1],inactive: -19.2%
O=C(CC(=O)c1ccccc1)O[C@H]1CN2CCC1CC2,"activity change, positive = activation",[1],inactive: 2.73% [at 9.22 µM]
NS(=O)(=O)Cc1ccc([As](=O)(O)O)cc1,"activity change, positive = activation",[1],inactive: 0.212% [at 9.22 µM]
CCOP(=O)(Nc1cccc2ccccc12)OCC,"activity change, positive = activation",[1],inactive: 23.1%
COc1cc(C2NCCC3(OCCO3)C2(C)C)cc(OC)c1OC (configuration not stated),"activity change, positive = activation",[1],inactive: 2.33%
